Results reported in US20080280877A1, “Azetidines” (Pfizer Inc, priority 2007, published 2008).

Protein sequences, listed by entry. Tags and fused reporters are not part of them.
UniProt P43116, whole entry: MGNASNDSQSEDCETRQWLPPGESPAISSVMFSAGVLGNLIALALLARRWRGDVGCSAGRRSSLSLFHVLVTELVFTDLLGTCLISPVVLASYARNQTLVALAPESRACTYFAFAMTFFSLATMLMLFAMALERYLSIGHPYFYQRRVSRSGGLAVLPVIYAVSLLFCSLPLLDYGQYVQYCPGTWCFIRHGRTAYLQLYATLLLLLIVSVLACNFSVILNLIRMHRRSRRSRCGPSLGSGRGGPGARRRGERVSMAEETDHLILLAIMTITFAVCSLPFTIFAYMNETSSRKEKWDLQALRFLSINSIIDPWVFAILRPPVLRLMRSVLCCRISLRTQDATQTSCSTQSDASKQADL

Molecular target: recombinant human EP-2 receptor (Homo sapiens, UniProt P43116)
Experiment: in vitro antagonist potency against recombinant human EP-2 receptor in CHO cells (cAMP, Protocol 1)
Format: cell-based
Conditions: read-out: EP2 Ki; functional Ki by Cheng-Prusoff from IC50; CHO cells stimulated with PGE2 (5 nM); cAMP readout

| Structure (SMILES) | Ki |
| --- | --- |
| O=C(c1ccc(F)cc1)N1CC(COc2ccc(-c3ccccc3)cc2)(C(=O)O)C1 | 0.0212 µM |
| N#Cc1ccc(-c2ccc(OCC3(C(=O)O)CN(C(=O)C4CCOCC4)C3)cc2)cc1 | 0.388 µM |
| N#Cc1ccc(-c2ccc(OCC3(C(=O)O)CN(C(=O)C4CCC(F)(F)CC4)C3)cc2)cc1 | 0.0247 µM |
| O=C(c1ccc(F)cc1)N1CC(COc2ccc(-c3ccc(F)c(F)c3)cc2)(C(=O)O)C1 | 0.0049 µM |
| O=C(C1CCOCC1)N1CC(COc2ccc(-c3ccc(Cl)cc3)cc2)(C(=O)O)C1 | 0.824 µM |
| O=C(C1CCC(F)(F)CC1)N1CC(COc2ccc(-c3ccc(F)cc3)cc2)(C(=O)O)C1 | 0.0713 µM |
| O=C(C1CCC(F)(F)CC1)N1CC(COc2ccc(-c3ccc(Cl)cn3)cc2)(C(=O)O)C1 | 0.192 µM |
| COc1ccc(-c2ccc(OCC3(C(=O)O)CN(C(=O)c4ccc(F)cc4)C3)cc2)cc1 | 0.002 µM |
| O=C(Nc1cccc(Cl)c1Cl)N1CC(COc2cccc(Cl)c2)(C(=O)O)C1 | 0.707 µM |
